Source: patent US20260241048A1, “PSMA-TARGETED RADIOPHARMACEUTICALS AND DNA DAMAGE RESPONSE INHIBITOR COMBINATION THERAPY” (FUSION PHARMACEUTICALS INC., priority 2023, published 2026)

System: PC3-PSMA xenograft
Test: In vivo combination study of ^225Ac-Compound I and elimusertib in PC3-PSMA tumor xenograft bearing mouse model
Conditions: single agent elimusertib monotherapy, oral gavage twice per day, 3 days on/4 days off, four weekly cycles, 5, 20, 40 mg/kg
Protocol: Groups of mice (n=5/group) were treated with ^225Ac-Compound I, administered as a single dose (intravenous), at a dose sub-optimal for monotherapeutic efficacy (1.23 MBq/kg or 1 μCi, based on 30 g mice). […] Tumor measurements were taken 2-3 times per week and used to calculate tumor volume. Study duration was 61 days after initial therapeutic administration.
Tumor growth was tracked over time and expressed as Relative Tumor Volume (RTV; tumor volume on day X divided by initial tumor volume on day 0) (FIGS. 4A-4C).

C[C@@H]1COCCN1c1cc(-c2ccnn2C)c2ccnc(-c3ccn[nH]3)c2n1 [elimusertib]
Tumor growth (Relative Tumor Volume): dose dependent efficacy
